Test results reported in BindingDB's records for patent US9156811 (Univeristy of Dundee, 2015).

Experiments:
[1] = target: T1, Glycylpeptide N-tetradecanoyltransferase (Trypanosoma brucei brucei (strain 927/4 GUTat10.1), UniProt Q388H8); details: pH 7.4; 25 °C
T1 sequence (Q388H8 whole entry): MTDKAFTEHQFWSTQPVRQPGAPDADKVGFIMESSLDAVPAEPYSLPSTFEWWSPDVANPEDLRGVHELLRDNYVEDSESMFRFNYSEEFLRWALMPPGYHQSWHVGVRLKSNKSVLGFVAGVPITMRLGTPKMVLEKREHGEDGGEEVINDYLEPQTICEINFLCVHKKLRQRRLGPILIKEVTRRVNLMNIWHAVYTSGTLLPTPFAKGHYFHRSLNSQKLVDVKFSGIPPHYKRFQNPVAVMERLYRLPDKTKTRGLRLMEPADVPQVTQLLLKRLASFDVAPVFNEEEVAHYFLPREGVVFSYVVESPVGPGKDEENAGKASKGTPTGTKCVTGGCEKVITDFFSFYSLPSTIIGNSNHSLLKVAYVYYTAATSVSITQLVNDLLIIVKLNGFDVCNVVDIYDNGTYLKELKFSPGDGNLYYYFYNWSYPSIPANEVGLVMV

[2] = target: T2, Glycylpeptide N-tetradecanoyltransferase 1 (Homo sapiens, UniProt P30419); details: pH 7.4; 25 °C
T2 sequence (P30419 whole entry): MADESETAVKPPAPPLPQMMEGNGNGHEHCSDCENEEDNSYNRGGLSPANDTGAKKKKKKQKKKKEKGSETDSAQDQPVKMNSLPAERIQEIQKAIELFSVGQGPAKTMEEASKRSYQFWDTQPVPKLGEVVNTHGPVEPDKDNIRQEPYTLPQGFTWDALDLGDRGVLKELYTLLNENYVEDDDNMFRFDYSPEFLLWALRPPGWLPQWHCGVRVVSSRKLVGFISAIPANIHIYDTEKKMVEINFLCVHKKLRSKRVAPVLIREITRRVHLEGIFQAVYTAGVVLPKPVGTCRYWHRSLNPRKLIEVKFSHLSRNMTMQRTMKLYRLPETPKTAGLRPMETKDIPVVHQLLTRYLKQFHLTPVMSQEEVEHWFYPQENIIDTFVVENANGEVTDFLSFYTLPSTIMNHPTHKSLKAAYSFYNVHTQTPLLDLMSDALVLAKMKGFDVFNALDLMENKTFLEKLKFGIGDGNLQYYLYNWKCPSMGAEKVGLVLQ

Cc1nn(C)c(C)c1N[S+](=O)([O-])c1ccc(NCCC2CCN(C)CC2)nc1 [US9156811, DDD88000] gave an IC50 [1] of 0.03 µM.
With Cc1nn(C)c(C)c1N[S+](=O)([O-])c1ccc(NCCN2CCN(C)CC2)nc1 [US9156811, DDD85602] the IC50 [2] was 9.5 µM.
